Measurements as given in PubChem BioAssay AID1970 (National Center for Advancing Translational Sciences (NCATS), 2009).
The list shows a part of the results, in another mix than the full data. Inconclusive results are not listed. Activity calls are given as the source filed them. Calls follow the shape of the dose curve; as a rule, active = well fitted inhibition curve with a large enough effect; inconclusive = small, poorly fitted or top-dose-only effect; inactive = flat fitted curve, though single readings scatter.

By UniProt entry, the sequences of proteins in these tests, tags left out. Where a name states a change or a piece, a line headed by the entry shows the natural chain unless it says otherwise.
UniProt Q9HAZ1: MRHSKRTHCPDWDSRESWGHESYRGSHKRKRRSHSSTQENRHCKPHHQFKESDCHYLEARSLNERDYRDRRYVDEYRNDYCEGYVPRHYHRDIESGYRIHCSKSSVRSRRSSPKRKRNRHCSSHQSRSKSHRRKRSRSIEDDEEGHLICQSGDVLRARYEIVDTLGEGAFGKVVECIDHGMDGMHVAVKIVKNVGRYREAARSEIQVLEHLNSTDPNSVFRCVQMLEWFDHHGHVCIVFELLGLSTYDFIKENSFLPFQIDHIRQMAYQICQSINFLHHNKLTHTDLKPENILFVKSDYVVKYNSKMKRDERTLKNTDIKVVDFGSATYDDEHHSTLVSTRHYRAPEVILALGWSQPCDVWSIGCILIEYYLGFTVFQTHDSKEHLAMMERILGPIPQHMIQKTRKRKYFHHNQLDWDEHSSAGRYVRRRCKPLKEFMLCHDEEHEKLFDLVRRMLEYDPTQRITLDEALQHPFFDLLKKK

Target: Dual specificity protein kinase CLK4 (Homo sapiens) (UniProt Q9HAZ1)
Assay: Confirmation Assay for Inhibitors of CDC-like Kinase 4 (Kinase-Glo Assay)
Conditions: recombinant Clk4, Kinase-Glo ATP depletion luminescence
Procedure: NIH Molecular Libraries Probe Production Centers Network [MLPCN] NIH Chemical Genomics Center [NCGC] MLPCN Grant: 1R03MH084827-01 Assay Submitter (PI): Tom Misteli NCGC Assay Overview: Clk4 (Invitrogen, cat# PV3839) was assayed using ATP and the RS repeat peptide (AnaSpec cat # 61722) as substrates. Following the Clk4 reaction, the remaining ATP levels were detected using Promega Kinase-Glo technology wherein the remaining ATP from the kinase reaction is detected using Ultra-Glo luciferase and D-luciferin which generates a bioluminescence signal from the ATP. The positive control for the assay was TG003 (Sigma-Aldrich, cat# 300801-52-9) which has been described as an inhibitor of Clk 4[1].
NCGC Assay Protocol Summary: Two uL/well of substrate-buffer solution (100 uM RS peptide, 1 uM ATP, 25 mM Tris pH7.5, 10 mM MgCl2, 0.5 mM EGTA, 2.5 mM DTT, 0.01% Triton X-100 final concentration) was dispensed into 1536-well, assay plates (Greiner, solid white medium-binding plates) with Aurora Discovery BioRAPTR Flying Reagent Dispenser (FRD; Beckton-Dickenson). Using a Kalypsys pin tool equipped with a 1536-pin tool, 23 nL of compound solution was transferred to the assay plate. […] Luminescence was detected with the ViewLux plate reader (Perkin Elmer, Waltham, MA) after 5 min incubation using a 5 second exposure time and 2x binning.

Row | Structure (SMILES) | Potency
1 | CN(Cc1ncc[nH]1)c1ncnc2ccc(-c3ccc4c(c3)OCO4)cc12 | active: 65.4 nM
2 | c1nc(NCC2CCCC2)c2cc(-c3ccc4c(c3)OCO4)ccc2n1 | active: 51.9 nM
